From patent publication US20160375006A1 (published 2016)

By UniProt entry, the sequences of proteins in these tests, tags left out. Where a name states a change or a piece, a line headed by the entry shows the natural chain unless it says otherwise.
UniProt P49840: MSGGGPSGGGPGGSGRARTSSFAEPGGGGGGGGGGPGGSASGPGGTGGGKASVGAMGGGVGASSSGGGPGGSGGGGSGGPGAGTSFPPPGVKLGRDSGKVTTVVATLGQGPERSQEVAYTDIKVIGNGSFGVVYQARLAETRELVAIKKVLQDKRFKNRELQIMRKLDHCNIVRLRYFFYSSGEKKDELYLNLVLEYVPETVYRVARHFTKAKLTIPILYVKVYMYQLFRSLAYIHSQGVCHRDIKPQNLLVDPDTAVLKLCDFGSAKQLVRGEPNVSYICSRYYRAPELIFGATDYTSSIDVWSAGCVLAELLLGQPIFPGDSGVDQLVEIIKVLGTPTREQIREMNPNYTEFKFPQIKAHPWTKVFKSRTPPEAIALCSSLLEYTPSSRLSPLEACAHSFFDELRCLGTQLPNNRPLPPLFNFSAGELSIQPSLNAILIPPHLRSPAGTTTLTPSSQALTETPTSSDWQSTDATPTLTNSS

Molecular target: GSK3α (Homo sapiens, UniProt P49840)

## CC[C@@]1(c2ccccc2)C2=C(CC(C)(C)CC2=O)Nc2n[nH]cc21 [BRD0705]
  % Inhibition at 10 μM: 100.8%
